Source: US9745328B2, “Flap modulators” (JANSSEN PHARMACEUTICA NV, priority 2013, dated 2017)
Where two headings read alike, the source gives them in different places.

The chains behind the UniProt entries cited, without tags or fusion partners.
UniProt P20292, whole entry: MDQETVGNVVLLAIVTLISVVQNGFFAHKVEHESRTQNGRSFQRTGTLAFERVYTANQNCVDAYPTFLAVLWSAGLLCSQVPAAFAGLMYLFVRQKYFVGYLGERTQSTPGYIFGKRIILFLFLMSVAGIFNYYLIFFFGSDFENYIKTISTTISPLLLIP

Molecular target: human FLAP (Homo sapiens (Human), UniProt P20292)
Assay: FLAP binding assay (HTRF format)
Details: read-out: FLAP Binding wild type HTRF Ki

Fc1cc(Br)ccc1-c1ccc(-c2cnc3[nH]ccc3c2)c(F)c1
Ki: > 10 µM
Ki (human FLAP wild type, HTRF, Table 6 (additional runs)): > 10 µM
